Experimental data from patent US20110306541A1, “METHODS FOR TREATING HCV” (priority 2010, published 2011).

Test system: HCV genotype 1b replicon cells (Huh-luc)
Test: EC50 determinations in Huh-luc replicon cells (Biological Example 2)
Format: cell-based
Details: for EC50: Hepatitis C virus, 72 h, 3 days, average ± standard deviation
Protocol: Compounds were serially diluted 1:3 in 100% DMSO (Sigma). These serial dilutions were added to the cells at a 1:200 dilution to achieve a final concentration of 0.5% DMSO in a total volume of 200 μL. Plates were incubated at 37° C. for 3 days, after which culture media were removed and cells were lysed and assayed for luciferase activity using a commercial luciferase assay (Promega, Madison, Wis.). HCV replication levels in drug-treated samples were expressed as a percentage of those in untreated controls (defined as 100%), and data were fit to the logistic dose response equation y=a/(1+(x/b)^c) using XLFit4 software (IDBS, Emeryville, Calif.). EC50 values were calculated from the resulting equations as described previously.

Row | SMILES | antiviral activity | EC50
1 | NC(=O)c1ncn([C@@H]2O[C@H](CO)[C@@H](O)[C@H]2O)n1 [Ribavirin, 1-β-D-ribofuranosyl-1H-1,2,4-Triazole-3-carboxamide, reference compound] | no antiviral activity up to concentrations which were beginning to show cytotoxicity | 
2 | Fc1ccccc1-c1nc2ccn(Cc3ccc(-c4ccc(C(F)(F)F)cc4C(F)(F)F)nn3)cc-2n1 [Compound 1, 5-((6-(2,4-bis(trifluoromethyl)phenyl)pyridazin-3-yl)methyl)-2-(2-fluorophenyl)-5H-imidazo[4,5-c]pyridine] |  | 0.4 ± 0.14 nM
3 | CC[C@@H]1C[C@]1(NC(=O)[C@@H]1C[C@@H](Oc2cc(-c3csc(NC(C)C)n3)nc3c(Cl)c(OCCN4CCOCC4)ccc23)CN1C(=O)[C@@H](NC(=O)O[C@@H]1C[C@@H]2C[C@@H]2C1)C(C)(C)C)C(=O)O [Compound 3] |  | 2.3 ± 2.6 nM
